Assay [1] has as its target human BCMA on cells (endogenous on multiple myeloma cell lines; stably transfected 293T-hBCMA) (human) (UniProt Q02223). The experiment in a line: flow cytometry, 293T-hBCMA cells. A general note: Flow cytometry measures light scatter and fluorescence of single cells or particles in a stream.
For assay [2], the target named is Recombinant human BCMA ECD protein (Acro Biosystems) (human) (UniProt Q02223). The experiment in a line: competition ELISA on coated human BCMA ECD, competitor BAFF at 1 ng/ml, Experiment No. 2.
The target is the same in assay [3]. Kind of assay: competition ELISA on coated human BCMA ECD, competitor APRIL at 10 ng/ml, Experiment No. 1. Background: An ELISA detects its analyte on a solid surface through an enzyme-linked reagent.
Assay [4] shares this target. The experiment in a line: competition ELISA on coated human BCMA ECD, competitor APRIL at 10 ng/ml, Experiment No. 2.

Chains of the proteins cited; added tags and fusions are not shown. Residues count along the entry.
UniProt Q02223, whole entry: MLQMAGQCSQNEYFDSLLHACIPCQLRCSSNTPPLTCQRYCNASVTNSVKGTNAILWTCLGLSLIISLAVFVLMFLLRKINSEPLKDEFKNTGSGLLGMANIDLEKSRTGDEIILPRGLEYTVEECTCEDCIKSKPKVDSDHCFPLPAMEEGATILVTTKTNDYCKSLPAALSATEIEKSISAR
UniProt Q02223, 1-54 limits assumed: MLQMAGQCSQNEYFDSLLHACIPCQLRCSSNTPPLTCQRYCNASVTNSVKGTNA

For orientation: Kd means the equilibrium constant for the complex coming apart. Usually IC50 stands for the concentration needed to halve the response being measured.

As to “Conjugate 1: anti-BCMA antibody J6M0 conjugated to maleimido-caproyl monomethyl auristatin F (mc-MMAF), surrogate ADC for GSK2857916”, the Kd in assay [1] was 7.1 nM. Also, the IC50 in assay [2] is 7.4 nM; in assay [3], 6.8 nM; in assay [4], 8.5 nM.

The values are drawn from patent US20220323599A1, “ANTI-BCMA ANTIBODY CONJUGATE, COMPOSITIONS COMPRISING THE SAME, AND METHODS OF MAKING AND USING THE SAME” (CELGENE CORPORATION, priority 2019, published 2022).
